Literature values in publication PMC3365014, “Specific Recognition of p53 Tetramers by Peptides Derived from p53 Interacting Proteins” (PLoS ONE, 2012).

Target: p53 NRD
Details: full-length S100 proteins

Kd of binding to the NRD: much weaker
B1: S100A4: S100 family protein; binding to the NRD much weaker (protein, UniProt P26447 2-101, looked up)
Protein S100-A4: ACPLEKALDVMVSTFHKYSGKEGDKFKLNKSELKELLTRELPSFLGKRTDEAAFQKLMSNLDSNRDNEVDFQEYCVFLSCIAMMCNEFFEGFPDKQPRKK
